# According to patent US8981087B2, “Benzo [E] [1,3] oxazin-4-one derivatives as phosphoinositide 3-kinase inhibitors” (Karus Therapeutics Limited, priority 2009, dated 2015):
# Amino acid sequences for entries named in this document (tags omitted). A change or cut given only in a name is not applied to a line headed by its entry.
# UniProt P42338: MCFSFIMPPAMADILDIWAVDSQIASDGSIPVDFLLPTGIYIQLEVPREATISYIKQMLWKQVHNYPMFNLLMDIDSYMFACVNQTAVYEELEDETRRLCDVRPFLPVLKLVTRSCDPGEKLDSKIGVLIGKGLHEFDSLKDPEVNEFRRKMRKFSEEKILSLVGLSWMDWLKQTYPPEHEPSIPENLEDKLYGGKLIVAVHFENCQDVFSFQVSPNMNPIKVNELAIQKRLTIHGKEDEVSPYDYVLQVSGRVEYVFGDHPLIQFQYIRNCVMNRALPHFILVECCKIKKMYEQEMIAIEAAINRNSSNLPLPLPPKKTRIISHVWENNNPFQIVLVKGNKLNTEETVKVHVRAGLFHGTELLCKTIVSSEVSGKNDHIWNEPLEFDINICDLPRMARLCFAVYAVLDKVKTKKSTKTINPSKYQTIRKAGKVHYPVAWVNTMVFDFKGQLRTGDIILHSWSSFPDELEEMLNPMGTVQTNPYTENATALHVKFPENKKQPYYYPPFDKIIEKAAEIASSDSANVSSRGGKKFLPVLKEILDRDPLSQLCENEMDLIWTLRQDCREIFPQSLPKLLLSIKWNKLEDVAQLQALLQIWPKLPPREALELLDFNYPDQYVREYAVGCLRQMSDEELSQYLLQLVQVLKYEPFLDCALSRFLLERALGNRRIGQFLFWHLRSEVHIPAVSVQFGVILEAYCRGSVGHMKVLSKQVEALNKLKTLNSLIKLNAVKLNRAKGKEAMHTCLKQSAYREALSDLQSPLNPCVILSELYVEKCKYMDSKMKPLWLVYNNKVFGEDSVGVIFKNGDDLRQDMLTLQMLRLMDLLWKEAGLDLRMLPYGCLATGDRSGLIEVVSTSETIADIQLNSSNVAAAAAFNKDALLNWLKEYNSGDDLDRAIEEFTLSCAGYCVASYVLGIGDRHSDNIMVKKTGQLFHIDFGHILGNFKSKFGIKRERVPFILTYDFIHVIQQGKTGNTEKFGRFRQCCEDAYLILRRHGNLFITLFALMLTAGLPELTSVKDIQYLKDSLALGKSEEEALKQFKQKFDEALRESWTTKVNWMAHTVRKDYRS
# UniProt P48736: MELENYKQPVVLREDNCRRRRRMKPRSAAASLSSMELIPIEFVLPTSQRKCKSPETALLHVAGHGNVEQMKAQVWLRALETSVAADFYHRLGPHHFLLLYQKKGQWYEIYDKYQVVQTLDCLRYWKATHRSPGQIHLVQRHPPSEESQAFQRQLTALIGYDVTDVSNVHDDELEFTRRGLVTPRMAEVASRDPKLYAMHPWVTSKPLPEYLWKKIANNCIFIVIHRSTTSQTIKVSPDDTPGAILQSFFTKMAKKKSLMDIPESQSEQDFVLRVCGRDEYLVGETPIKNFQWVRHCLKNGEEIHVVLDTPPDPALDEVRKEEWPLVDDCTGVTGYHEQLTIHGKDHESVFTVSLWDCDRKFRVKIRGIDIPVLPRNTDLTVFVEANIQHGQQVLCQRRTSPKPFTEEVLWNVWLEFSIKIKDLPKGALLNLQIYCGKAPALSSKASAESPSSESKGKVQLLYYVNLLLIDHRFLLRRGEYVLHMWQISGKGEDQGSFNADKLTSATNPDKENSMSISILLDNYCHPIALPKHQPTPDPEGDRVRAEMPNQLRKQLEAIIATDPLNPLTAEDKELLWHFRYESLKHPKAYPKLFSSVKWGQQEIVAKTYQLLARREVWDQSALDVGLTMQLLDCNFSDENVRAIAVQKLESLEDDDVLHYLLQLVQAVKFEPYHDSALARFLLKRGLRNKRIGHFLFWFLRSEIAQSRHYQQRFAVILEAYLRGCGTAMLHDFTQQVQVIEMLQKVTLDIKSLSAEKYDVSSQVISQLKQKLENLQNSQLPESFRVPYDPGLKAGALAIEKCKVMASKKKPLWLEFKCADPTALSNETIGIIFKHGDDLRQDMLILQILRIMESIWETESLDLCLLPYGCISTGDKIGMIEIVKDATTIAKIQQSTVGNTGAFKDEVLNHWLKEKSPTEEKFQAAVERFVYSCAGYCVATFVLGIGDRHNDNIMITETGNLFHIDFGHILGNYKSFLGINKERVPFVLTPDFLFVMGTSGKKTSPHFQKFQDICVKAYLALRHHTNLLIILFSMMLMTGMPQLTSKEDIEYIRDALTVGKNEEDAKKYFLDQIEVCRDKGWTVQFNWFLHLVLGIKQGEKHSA
# Key:
# PI3K-p110β = PI3K-p110β (Homo sapiens, UniProt P42338); experiment: Biochemical PI3K-p110β inhibition; conditions: Class IA enzyme
# PI3K-p110γ = PI3K-p110γ (Homo sapiens, UniProt P48736); experiment: Biochemical PI3K-p110γ inhibition; conditions: Class IB enzyme
compound,measurement,setting,value
"O=c1cc(N2CCOCC2)oc2c(-c3ccccc3)cccc12 [LY294002, reference compound]",IC50,PI3K-p110β,1.7 µM
same,IC50,PI3K-p110γ,4.11 µM
